According to BindingDB's records for doi:10.1124/jpet.105.092155 (Acadia Pharmaceuticals, 2005):
Where “and” joins values, the source holds several entries; their conditions need not be identical. Equal values may be shown once.

By UniProt entry, the sequences of proteins in these tests, tags left out.
UniProt P14416, whole entry: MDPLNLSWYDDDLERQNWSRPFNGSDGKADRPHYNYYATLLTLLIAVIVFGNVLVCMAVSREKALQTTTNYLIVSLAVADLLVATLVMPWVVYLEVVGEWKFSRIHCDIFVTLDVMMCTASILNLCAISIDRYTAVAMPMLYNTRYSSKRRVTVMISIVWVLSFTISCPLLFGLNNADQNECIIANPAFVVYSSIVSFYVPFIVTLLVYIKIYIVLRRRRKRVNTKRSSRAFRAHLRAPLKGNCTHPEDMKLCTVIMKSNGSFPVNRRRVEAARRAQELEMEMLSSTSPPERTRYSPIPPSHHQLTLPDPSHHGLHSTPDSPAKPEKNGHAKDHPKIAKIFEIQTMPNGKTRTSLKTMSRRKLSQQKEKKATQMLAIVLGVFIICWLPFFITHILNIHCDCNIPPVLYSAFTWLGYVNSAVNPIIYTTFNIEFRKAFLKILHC

Biological target: D(2) dopamine receptor (Homo sapiens, UniProt P14416)

CCN1CCCC1CNC(=O)c1c(O)c(Cl)cc(Cl)c1OC (stereo unspecified) [3,5-Dichloro-N-(1-ethyl-pyrrolidin-2-ylmethyl)-2-hydroxy-6-methoxy-benzamide(Raclopride)]
Ki: 2.4 nM and 0.5 nM
